Article PMC3835680, “Inhibition of Nutlin-Resistant HDM2 Mutants by Stapled Peptides” (PLoS ONE, 2013)

Sequences of proteins named here, by UniProt entry; tags and fusion partners are left off. Residues count along the entry.
UniProt Q00987, 1-125 M62A: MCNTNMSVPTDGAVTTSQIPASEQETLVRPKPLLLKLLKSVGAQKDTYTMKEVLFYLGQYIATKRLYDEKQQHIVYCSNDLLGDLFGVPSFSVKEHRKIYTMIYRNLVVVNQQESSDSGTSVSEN
UniProt Q00987, 1-125 Q24R: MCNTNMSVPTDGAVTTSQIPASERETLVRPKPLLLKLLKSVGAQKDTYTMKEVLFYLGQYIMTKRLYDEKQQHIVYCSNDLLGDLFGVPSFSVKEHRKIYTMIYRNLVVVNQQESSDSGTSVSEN
UniProt Q00987, 1-125 P20L: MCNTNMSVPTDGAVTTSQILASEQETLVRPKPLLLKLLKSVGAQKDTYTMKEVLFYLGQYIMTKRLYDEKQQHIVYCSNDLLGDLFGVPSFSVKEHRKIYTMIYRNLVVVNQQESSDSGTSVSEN

Experiments:
Assay type in all cases: binding
HDM2 (1-125) M62A = target: T1, HDM2 (1-125) M62A (Homo sapiens, UniProt Q00987, M62A); assay: Fluorescence anisotropy, competitive titration, HDM2 M62A; conditions: M62A compared to wild-type
T1 construct: using purified HDM2 (1-125) and carboxyfluorescein (FAM) labeled 12-1 peptide; GST (N, cleaved yes); made in house; host or cells: E. coli BL21 DE3
Procedure: (§1) Cells harbouring the GST fusion constructs were grown in LB medium at 37°C to an OD600 of ~0.6 and induction was carried out with 1 mM IPTG at room temperature. Cells were harvested by centrifugation and the cell pellets were resuspended in 50 mM Tris pH 8.0, 10% sucrose and then sonicated. The sample was next centrifuged for 60 mins at 17,000 g at 4°C. The supernatant was applied to a 5 mL FF GST column (Amersham) pre-equilibrated in wash buffer (50 mM Tris-HCl pH 8.0, 150 mM NaCl, 1 mM DTT). The column was then further washed by 6 volumes of wash buffer. HDM2 constructs were then purified from the column by cleavage with Precission protease (GE Lifesciences). 10 units of precission protease, in one column volume of wash buffer, were injected onto the column. The cleavage reaction was allowed to proceed overnight at 4°C. The cleaved protein was then eluted off the column with wash buffer. Protein fractions were analyzed with SDS page gel and concentrated using Centricon (3.5 kDa MWCO) concentrator. […] Protein fractions were analyzed with SDS page gel and concentrated using a Centricon (3.5 kDa MWCO) concentrator, Millipore.
(§2) All titrations were carried out in triplicate. Curve-fitting was carried out using Prism 4.0 (GraphPad).

HDM2 (1-125) Q24R = target: T2, HDM2 (1-125) Q24R (Homo sapiens, UniProt Q00987, Q24R); assay: Fluorescence anisotropy, competitive titration, HDM2 Q24R; conditions: Q24R compared to wild-type
T2 construct: using purified HDM2 (1-125) and carboxyfluorescein (FAM) labeled 12-1 peptide; GST (N, cleaved yes); made in house; host or cells: E. coli BL21 DE3
Procedure: as §1, §2

HDM2 (1-125) P20L = target: T3, HDM2 (1-125) P20L (Homo sapiens, UniProt Q00987, P20L); assay: Fluorescence anisotropy, competitive titration, HDM2 P20L; conditions: P20L compared to wild-type
T3 construct: using purified HDM2 (1-125) and carboxyfluorescein (FAM) labeled 12-1 peptide; GST (N, cleaved yes); made in house; host or cells: E. coli BL21 DE3
Procedure: as §1, §2

COc1ccc(C2=N[C@@H](c3ccc(Cl)cc3)[C@@H](c3ccc(Cl)cc3)N2C(=O)N2CCNC(=O)C2)c(OC(C)C)c1 [Nutlin]
Change of binding affinity versus wild-type HDM2 (HDM2 (1-125) M62A): significantly reduced affinity | Change of binding affinity versus wild-type HDM2 (HDM2 (1-125) Q24R): reduced affinity | Change of binding affinity versus wild-type HDM2 (HDM2 (1-125) P20L): reduced affinity
